Test results from PubChem BioAssay AID1477 (National Center for Advancing Translational Sciences (NCATS), 2009).
Only a part is listed here, and it is no random draw. Results filed as inconclusive are left out. Some salts or complexes appear as unconnected parts, following the source record. Activity calls are given as the source filed them. The call rests on the fitted dose curve; in most records, active means well fitted curve in the direction sought with a large enough effect; inconclusive means small, poorly fitted or top-dose-only effect, or effect the other way, or another doubt; inactive means no such curve, though single readings can be large or run the other way.

Sequences of proteins named here, by UniProt entry; tags and fusion partners are left off.
UniProt Q01196, whole entry partner: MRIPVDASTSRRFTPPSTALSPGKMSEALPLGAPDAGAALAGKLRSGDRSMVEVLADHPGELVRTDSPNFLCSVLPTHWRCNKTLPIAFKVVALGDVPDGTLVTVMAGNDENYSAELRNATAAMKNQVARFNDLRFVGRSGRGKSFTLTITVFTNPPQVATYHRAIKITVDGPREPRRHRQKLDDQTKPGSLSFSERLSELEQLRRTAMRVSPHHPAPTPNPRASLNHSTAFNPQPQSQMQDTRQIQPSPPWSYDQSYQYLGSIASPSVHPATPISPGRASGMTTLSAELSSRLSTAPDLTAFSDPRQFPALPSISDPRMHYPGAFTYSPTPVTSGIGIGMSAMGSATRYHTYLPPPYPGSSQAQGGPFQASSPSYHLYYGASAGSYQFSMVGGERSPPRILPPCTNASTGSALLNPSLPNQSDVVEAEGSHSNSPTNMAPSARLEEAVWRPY
UniProt Q13951, whole entry: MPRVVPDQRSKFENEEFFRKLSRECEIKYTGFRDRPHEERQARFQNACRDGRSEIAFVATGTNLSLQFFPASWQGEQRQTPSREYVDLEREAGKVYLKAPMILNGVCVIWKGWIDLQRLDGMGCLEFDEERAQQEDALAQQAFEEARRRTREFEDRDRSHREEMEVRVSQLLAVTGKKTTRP

Each compound was assayed against Runt-related transcription factor 1 (Homo sapiens) + Core-binding factor subunit beta (Homo sapiens) (UniProt Q01196+Q13951) (assay: qHTS Assay for Compounds Blocking the Interaction Between CBF-beta and RUNX1 for the Treatment of Acute Myeloid Leukemia). Details: AlphaScreen CBFb-His/RUNX1-biotin binding, biochemical; at 59.8 µM (top of the series) unless noted.
Further: % of control where 0% means no effect.

Compound	activity, negative = inhibition
CN(C)c1ccc(C(=O)NCC2(N3CCCCC3)CCCCC2)cc1	inactive: 8.49%
CCN1CCC(Nc2cccc(F)c2)CC1	inactive: 0.775%
Fc1ccccc1NC1CCN(Cc2ccccc2)CC1	inactive: -3.14%
CCCOc1ccc(C)cc1CN(CCCl)CCCl	inactive: 16.5%
CCC(CO)(C(=O)OC1CN2CCC1CC2)c1ccccc1 (stereo unspecified)	inactive: 1%
COc1cc(OC)cc(C(=O)NCC2(N3CCOCC3)CCCCC2)c1	inactive: 3.97%
CC(C)(C)OC(=O)N1CCC(Nc2ccccc2)CC1	inactive: 0.584%
CCOc1ncccc1C(=O)NCC1(N2CCOCC2)CCCCC1	inactive: 4.68%
O=C(OC1CN2CCC1CC2)C1c2ccccc2C=Cc2ccccc21 (stereo unspecified)	inactive: 4.16%
O=C(O)c1cccc(Nc2c([N+](=O)[O-])cc([N+](=O)[O-])cc2[N+](=O)[O-])c1	inactive: 12.9%
N/C(=N\O)c1c(N)no[n+]1[O-]	inactive: -0.221%
COc1ccc(C(=O)NCC2(N3CCOCC3)CCCCC2)cc1OC	inactive: 1.02%
c1ccc(CN2CCC(Nc3ccccc3)CC2)cc1	inactive: -1.44%
ClCCOP(OCCCl)OCCCl	inactive: -1% [at 21.7 µM]
CCOC(=O)C(CC)C1=NC(C)(C)Cc2ccccc21.O=[N+]([O-])c1cc([N+](=O)[O-])c(O)c([N+](=O)[O-])c1 (stereo unspecified)	inactive: 9.93%
N#Cc1ccc(C(=O)NCC2(N3CCCCC3)CCCCC2)cc1	inactive: -17.3%
COc1ccc(NC2CCN(C(=O)OC(C)(C)C)CC2)cc1	inactive: 3.78%
CN1CCN(CCOC(=O)C(O)(c2ccccc2)c2ccccc2)CC1	inactive: 1.37%

Compound	activity, negative = inhibition
O=C(NCC1(N2CCOCC2)CCCCC1)c1cc(=O)[nH]c2ccccc12	inactive: 2.08%
O=[N+]([O-])c1cc([N+](=O)[O-])c(NCC2CCS(=O)(=O)C2)c([N+](=O)[O-])c1 (stereo unspecified)	inactive: -27.1%
O=C(NCC1(N2CCCCC2)CCCCC1)c1cccc([N+](=O)[O-])c1	inactive: 19.2%
N#CC1(Nc2ccccc2)CCN(CCc2ccccc2)CC1	inactive: -3.73%
COc1ccc2c(c1O)-c1c(O)c(OC)cc3c1[C@H](C2)[N+](C)(C)CC3.O=[N+]([O-])c1cc([N+](=O)[O-])c([O-])c([N+](=O)[O-])c1[O-]	inactive: 0.0839%
O=C(OC1CN2CCC1CC2)c1ccc([N+](=O)[O-])cc1 (stereo unspecified)	inactive: 1.23%
CCOP(=O)(Cl)Cl	inactive: 7.75% [at 21.7 µM]
COc1ccc(CN(CCCl)CCCl)cc1Cl	inactive: -1.51%
CN(C)c1cccc(C(=O)NCC2(N3CCCCC3)CCCCC2)c1	inactive: 5.2%
CC(C)c1ccc(NC2CCN(C(=O)OC(C)(C)C)CC2)cc1	inactive: 7.31%
CCOC(=O)N1CCC(Nc2ccc(OC)cc2)CC1	inactive: 5.98%
O=C(OC1CN2CCC1CC2)C1c2ccccc2Oc2ccccc21 (stereo unspecified)	inactive: 7.22%
N#CC1(Nc2ccccc2)CCN(Cc2ccccc2)CC1	inactive: 2.76%
O=C(NCC1(N2CCOCC2)CCCCC1)c1cc2ccccc2o1	inactive: -3.61%
COc1ccc(C(=O)NCC2(N3CCCCC3)CCCCC2)c(OC)c1OC	inactive: -2.37%
Cc1ccc(OCC(C)C)c(CN(CCCl)CCCl)c1	inactive: 5.23%
COc1ccc(NC2CCN(CCc3ccccc3)CC2)c(OC)c1	inactive: -8.89%
CCOc1ccc(C)cc1CN(CCCl)CCCl	inactive: 7.86%
